Assay results reported in patent publication US20140234345A1, “NOVEL ANTI-CANCER ISOCARBOSTYRIL ALKALOID CONJUGATES” (priority 2011, published 2014).

Experiment: Cell viability of healthy PBMC
Description: All cell lines were plated in black, tissue culture treated, 96 well plates at a cell density of 1×10^5 celis/mL (1×10^4 cells/well). Cells were allowed 24 h to attach to the plate prior to being dosed with drug. […] Cells were allowed to incubate for 48 or 72 h. Following incubation cells were stained with Alamar Blue such that the final concentration of Alamar Blue in the test well was 10%. Cells were stained for 2 h and then fluorescence was measured on a Molecular Devices Analyst GT multimode plate reader using an excitation filter of 530/25 nm and an emission filter of 580/10 nm and a 561 nm dichroic mirror. Cell viability was expressed as a percentage of untreated control cells. Data are expressed as mean±standard error and are the average of four independent cell preparations.
Healthy PBMC (Peripheral Blood Mononuclear Cells) were treated similarly to the above tumour cell line tests.

O=C1N[C@@H]2C(=C[C@H](O)[C@@H](O)[C@H]2O)c2cc3c(c(O)c21)OCO3 [narciclasine, reference compound]
viability: ~90%
viability at 2.265 µM: > 60%
